Ab-14 heavy chain CDR variants: yeast mating affinities

Reference: Li et al. 2023, doi:10.1038/s41467-023-39022-2. File: FLAb, binding data.

The target is the same throughout: PDVDLGDISGINAS, from the HR2 region of SARS-CoV-2 spike.

Parent: Ab-14, a human scFv built as VH, three GGGGS repeats, VL. Only the CDRs of the heavy chain vary.
VH: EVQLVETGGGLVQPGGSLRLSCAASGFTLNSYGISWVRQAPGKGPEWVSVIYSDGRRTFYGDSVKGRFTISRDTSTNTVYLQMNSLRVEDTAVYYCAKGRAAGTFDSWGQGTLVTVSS
VL: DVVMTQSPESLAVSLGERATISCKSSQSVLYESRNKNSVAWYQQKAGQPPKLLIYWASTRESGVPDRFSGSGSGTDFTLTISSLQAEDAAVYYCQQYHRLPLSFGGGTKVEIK

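Phage display of a naive human antibody library on the peptide gave the parent. The variants were designed computationally from a first round of random CDR variants and then made and measured. Several design methods are mixed in this list. In AlphaSeq, yeast of one mating type display the scFv and yeast of the other type display the target. The frequency of each diploid, read from paired DNA barcodes, reflects how well the two displayed proteins bind. Scores were corrected for input abundance and mapped to Kd with protein pairs of known affinity run in the same pool. Each pool was mated in six replicate cultures.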

Positions count from residue 1 of the parent VH; S31E puts E in place of S.
This list holds designs with at most six substitutions.
The Kd shown is the geometric mean over detected replicates; a lower Kd is a better binder.
An entry "not detected" has no value in the source: the pair was not observed among the diploids in any replicate. This suggests poor binding but is not conclusive.
The list is sorted by this average, lowest first, undetected variants last.
The range of this assay differs from that of the first round, and the authors advise against merging the two.

| changes | Kd (apparent) | replicates with signal |
|---|---|---|
| S31E R100K A101E S107T | 360 pM | 6 of 6 |
| T28N S31E S53A G61A R100E S107I | 390 pM | 6 of 6 |
| T28D S31E S53A G61S R100E | 530 pM | 6 of 6 |
| T28N R100N A101T | 540 pM | 6 of 6 |
| T28D S63D A101N | 1.1 nM | 6 of 6 |
| G61S R100E A101V S107T | 1.1 nM | 6 of 6 |
| T28S R100S S107V | 1.1 nM | 6 of 6 |
| S31D F59A G61Q | 1.4 nM | 6 of 6 |
| T28E R100T A101N | 1.9 nM | 6 of 6 |
| T28E G61I R100T | 1.9 nM | 6 of 6 |
| T28G G61D R100Q A101L | 2.1 nM | 6 of 6 |
| T28G S31E S63Q R100K A101T | 2.2 nM | 6 of 6 |
| T28E S31E G61S R100K A101Q | 2.3 nM | 6 of 6 |
| T28E S31T R100K S107T | 2.7 nM | 6 of 6 |
| T28S S31Q G61S R100E S107K | 2.7 nM | 6 of 6 |
| N30D S31D G61S S63A | 3.5 nM | 6 of 6 |
| T28E S31M R100Q A101T | 3.7 nM | 6 of 6 |
| T28S S63D R100V A101N | 3.7 nM | 6 of 6 |
| F27R N30L S53A G61S | 4.4 nM | 6 of 6 |
| S31D A101T D106S | 5.8 nM | 6 of 6 |
| T28S G61V R100Q A101T S107A | 7.7 nM | 6 of 6 |
| T28H N30Q S31E | 8.2 nM | 6 of 6 |
| N30E G61A R100H | 8.5 nM | 6 of 6 |
| N30E G61K A101T | 9.1 nM | 6 of 6 |
| T28G R100K A101T | 10 nM | 6 of 6 |
| T28P G61D R100K A101L | 14 nM | 6 of 6 |
| S31E G61T A101F S107R | 18 nM | 6 of 6 |
| S31E F59M A101I | 18 nM | 1 of 6 |
| G26K T28D G61T R100K A101N | 19 nM | 6 of 6 |
| T28H R100W A101T | 20 nM | 5 of 6 |
| F27V S31E G103V S107Q | 20 nM | 1 of 6 |
| T28E G61I A101N | 28 nM | 3 of 6 |
| G26K T28N G61I A101Q | 28 nM | 1 of 6 |
| T28W S31E G61I R100N | 40 nM | 6 of 6 |
| T28V S31E G61I R100K | 44 nM | 6 of 6 |
| S31Q S53A D106T | 46 nM | 2 of 6 |
| N30D R56C R100Q A101I | 60 nM | 6 of 6 |
| S35Q S53A G61H R100T | 74 nM | 6 of 6 |
| T28E S53A S63R S107V | 78 nM | 2 of 6 |
| T28H G61A | 95 nM | 9 of 12 |
| T28N G99Q | 390 nM | 1 of 6 |
| S31E G61T A101F D106T | 900 nM | 1 of 6 |
| S31D I51F R56L F59Q G61I | 3.9 µM | 1 of 6 |
| T28Q S31D D106W | not detected | 0 of 6 |
| S31E T58E D62R G103V F105T S107Q | not detected | 0 of 6 |
| L29F S31E S53G G103V S107Q | not detected | 0 of 6 |
| T28N G103A | not detected | 0 of 6 |
| G33S T58V F59A G61Y S107Q | not detected | 0 of 6 |
| S31D I51M S107E | not detected | 0 of 6 |
| S35T G61K | not detected | 0 of 6 |
| T28E R56W G61V V64F | not detected | 0 of 6 |
| S31E G61T A101F S107C | not detected | 0 of 6 |
| G26H T28G G61S A101E T104H | not detected | 0 of 6 |
| F27V G33Q F59H G61S A102G | not detected | 0 of 6 |
| T28S S31Q G61S G103V | not detected | 0 of 6 |
| T28N N30D R56C G99C | not detected | 0 of 6 |
| G61I A102P G103A | not detected | 0 of 6 |
| T28S T104H D106T | not detected | 0 of 6 |
| F59A A101W G103D | not detected | 0 of 6 |
| R100S G103S F105G | not detected | 0 of 6 |
| R56Y G61S F105K S107T | not detected | 0 of 6 |
| S31D A101V D106I | not detected | 0 of 6 |
| F27Y N30L G99D R100Q G103L | not detected | 0 of 6 |

10 of these entries, quoted again:

| changes | Kd (apparent) | replicates with signal |
|---|---|---|
| T28N G99Q | 390 nM | 1 of 6 |
| S35Q S53A G61H R100T | 74 nM | 6 of 6 |
| T28H N30Q S31E | 8.2 nM | 6 of 6 |
| T28E G61I A101N | 28 nM | 3 of 6 |
| T28P G61D R100K A101L | 14 nM | 6 of 6 |
| S31D A101V D106I | not detected | 0 of 6 |
| T28H R100W A101T | 20 nM | 5 of 6 |
| S35T G61K | not detected | 0 of 6 |
| T28N N30D R56C G99C | not detected | 0 of 6 |
| T28S R100S S107V | 1.1 nM | 6 of 6 |

In the paper, a design with two or fewer of six values counts as a poor binder.
Where one sequence has several entries in the source, the replicates are pooled.
Background: pairings of all heavy chain designs with three empty control strains gave a value in 1% of cases (median 120 nM, 5th percentile 7.0 nM). Values in that range, when seen in few replicates, are hard to tell from nonspecific mating.